From article PMC4605843, “Cell-Penetrating Peptides Selectively Cross the Blood-Brain Barrier In Vivo” (PLoS ONE, 2015)

Legend:
[1] = In vitro metabolic stability in mouse brain homogenate; format: in vitro ADME; conditions: mouse brain homogenate 0.6 mg/ml protein (500 μl, 300 μg protein) + Krebs-Henseleit buffer pH 7.4, 0.1 mg/ml peptide, 37°C, 750 rpm, 0-120 min, HPLC-UV 215 nm
Description: (§1) Prior to use, the protein content of each homogenate was determined using the Pierce Modified Lowry Protein Assay method (Thermo Scientific) to generate a stock solution with a protein concentration of 0.6 mg/ml by dilution with Krebs-Henseleit buffer (pH 7.4, Sigma-Aldrich). […] After sampling, enzymatic activity was terminated by additional heat inactivation at 95°C for 5 min, followed by cooling the samples in an ice bath for 30 min. […] Therefore, a solid phase extraction (SPE) protocol using an Oasis® WCX μelution plate (Waters, Zellik, Belgium) was used prior to HPLC-UV analysis. In the Supporting Information, the protocol of the SPE extraction procedure is described (S1 Text). Blank control solutions were prepared as described above, but without adding the peptide. To confirm chemical stability and mass balance, control reference solutions without tissue homogenate or with a prior heat inactivation were analyzed as well. The HPLC-UV system consisted of a Waters Alliance 2695 separation module and a Waters 2996 photodiode array (PDA) detector (detection from 190-400 nm, quantification at 215 nm), fitted with Empower 2 software for data handling (Waters). […] Appropriate gradients for separation of the peptides and their metabolites were created by mixtures of water (0.1% trifluoroacetic acid m/V) and acetonitrile (0.1% trifluoroacetic acid m/V).

[2] = In vitro metabolic stability in mouse kidney homogenate; format: in vitro ADME; conditions: mouse kidney homogenate 0.6 mg/ml protein (500 μl, 300 μg protein) + Krebs-Henseleit buffer pH 7.4, 0.1 mg/ml peptide, 37°C, 750 rpm, 0-120 min, HPLC-UV 215 nm
Description: as §1

[3] = tested on: blood-brain barrier (BBB); assay: Multiple time regression (MTR) analysis, blood-to-brain influx; format: in vivo, ICR-CD-1 mice; conditions: whole brain, ± 65% confidence limits
[4] = tested on: blood-brain barrier (BBB); assay: Classification of peptides according to their BBB influx; conditions: classification method of ref [61] applied to the measured influx
[5] = In vitro metabolic stability in mouse serum; format: in vitro ADME; conditions: mouse serum 500 μl + 400 μl Krebs-Henseleit buffer pH 7.4 + 100 μl 1 mg/ml peptide, 37°C, 750 rpm, sampling 0-120 min plus early points, HPLC-UV 215 nm, t1/2 = -ln(2)/slope
Description: as §1

[6] = tested on: brain parenchyma and capillaries; assay: Capillary depletion method: brain parenchyma/capillary distribution; format: in vivo; conditions: capillary depletion, 10 min after IV injection of radiolabeled peptide (200 μl, 10000 cpm/μl), brain perfused with lactated Ringer's buffer, two ICR-CD-1 mice, gamma counter
Description: The capillary depletion method was used to evaluate the distribution of the peptide between the brain parenchyma and capillaries. In summary (see Materials and Methods in [45]), 200 μl of a radiolabeled peptide solution (10000 cpm/μl) was injected in the jugular externalis vein of two anesthetized ICR-CD-1 mice. Ten minutes after IV injection, mice were decapitated and brains were collected and measured for radioactivity. […] The resulting homogenate was weighed and centrifuged at 5400 g for 30 min at 4°C, resulting in a pellet, i.e. capillaries, and supernatant, i.e. parenchyma and fat tissue, which were weighed and measured in the gamma counter. […] Compartmental distribution was calculated as follows: Fractioncapillaries or parenchyma (%)=[…] or parenchyma/[…]×100 (4)

[7] = tested on: blood-brain barrier (BBB); assay: Brain-to-blood transport (efflux) after intracerebroventricular injection; conditions: ICR-CD-1 mice
[8] = tested on: blood-brain barrier (BBB); assay: Regional variation in brain influx (MTR, dissected brain regions); conditions: comparison of slopes (Kin), Prism 6, P threshold 0.05, ICR-CD-1 mice
[9] = tested on: blood-brain barrier (BBB); assay: Saturability of brain influx: MTR with and without excess unlabeled peptide; format: in vivo; conditions: no-carrier added radiolabeled peptide with and without 10 μg unlabeled peptide, IV, ICR-CD-1 mice; Kin not different, P > 0.05
Description: This dose of 20 μg was determined based on the amount of peptide injected during a MTR experiment estimated based on the specific activity and taking into account the amount of non-radioactively iodinated peptide present in the injected dose. […] During this experiment, peptides are radiolabeled using a no-carrier added method in order that only radioactively labeled peptide was injected.

[10] = In vitro metabolic stability in mouse liver homogenate; format: in vitro ADME; conditions: mouse liver homogenate 0.6 mg/ml protein (500 μl, 300 μg protein) + Krebs-Henseleit buffer pH 7.4, 0.1 mg/ml peptide, 37°C, 750 rpm, 0-120 min, HPLC-UV 215 nm
Description: as §1

## TP10
[1]
  Half-life, brain: 2.932 h
[2]
  Half-life, kidney: 0.572 h
[3]; 125I-radioiodinated peptide, IV jugular vein 200 μl (30000 cpm/μl), anesthetized female ICR-CD-1 mice, 1-15 min, brain/serum radioactivity (gamma counter) vs exposure time, pVEC, SynB3, TP10: two experiments fitted together
  Kin (unidirectional influx rate), linear Gjedde-Patlak model: 0.05 µL/g/min and 0.05 ± 0.04 µL/g/min
[3]; 125I-radioiodinated, IV, ICR-CD-1 mice, MTR 1-15 min
  Vi (initial brain distribution volume), linear Gjedde-Patlak model: 9.88 ± 0.66 µL/g
[4]
  BBB influx class: class 1
[5]
  Half-life, serum: 21.93 h
[6]
  Parenchymal fraction: 85%
[7]; 1 μl radioiodinated peptide (25000 cpm/μl) in lateral ventricle, 1-15 min, slope of ln(brain activity) vs time
  kout (efflux transfer constant): 0.09 ± 0.02 min⁻¹
[7]; ln(2)/kout after intracerebroventricular injection
  t1/2,brain (half-time disappearance): 8 min
[8]
  Difference in brain influx rates between the eight dissected brain regions: no statistically significant difference
[9]
  Saturability of the brain influx mechanism: not saturable
[10]
  Half-life, liver: 2.323 h

“And” between values parts separate entries of the source, which are not always exact repeats. Equal entries are not always repeated.
